{"source": "patent US10806871B2", "about": "“Inhalable dry powders” (priority 2012, dated 2020)", "origin": "cited, not measured here", "conditions": "listing, cf. PCT Publication WO/2004/062643; cited from earlier work"}
{"substance": "Medroxyprogesterone", "values": [{"measurement": "Solubility In Water", "result": "Insoluble"}]}
